Assay results reported in patent US20240343706A1.

Amino acid sequences for entries named in this document (tags omitted).
UniProt Q96SW2, whole entry: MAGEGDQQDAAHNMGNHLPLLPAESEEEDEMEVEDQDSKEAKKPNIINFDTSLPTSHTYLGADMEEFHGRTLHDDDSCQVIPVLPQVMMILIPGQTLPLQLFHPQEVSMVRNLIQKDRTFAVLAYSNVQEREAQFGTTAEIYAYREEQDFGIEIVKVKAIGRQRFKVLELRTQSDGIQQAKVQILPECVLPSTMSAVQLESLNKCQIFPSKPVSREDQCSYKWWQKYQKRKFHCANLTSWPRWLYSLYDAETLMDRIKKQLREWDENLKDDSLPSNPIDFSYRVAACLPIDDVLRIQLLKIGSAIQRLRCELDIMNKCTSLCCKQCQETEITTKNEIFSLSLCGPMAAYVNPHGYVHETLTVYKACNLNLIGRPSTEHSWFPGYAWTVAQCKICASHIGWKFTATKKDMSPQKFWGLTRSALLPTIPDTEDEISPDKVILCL
UniProt Q16531, whole entry partner: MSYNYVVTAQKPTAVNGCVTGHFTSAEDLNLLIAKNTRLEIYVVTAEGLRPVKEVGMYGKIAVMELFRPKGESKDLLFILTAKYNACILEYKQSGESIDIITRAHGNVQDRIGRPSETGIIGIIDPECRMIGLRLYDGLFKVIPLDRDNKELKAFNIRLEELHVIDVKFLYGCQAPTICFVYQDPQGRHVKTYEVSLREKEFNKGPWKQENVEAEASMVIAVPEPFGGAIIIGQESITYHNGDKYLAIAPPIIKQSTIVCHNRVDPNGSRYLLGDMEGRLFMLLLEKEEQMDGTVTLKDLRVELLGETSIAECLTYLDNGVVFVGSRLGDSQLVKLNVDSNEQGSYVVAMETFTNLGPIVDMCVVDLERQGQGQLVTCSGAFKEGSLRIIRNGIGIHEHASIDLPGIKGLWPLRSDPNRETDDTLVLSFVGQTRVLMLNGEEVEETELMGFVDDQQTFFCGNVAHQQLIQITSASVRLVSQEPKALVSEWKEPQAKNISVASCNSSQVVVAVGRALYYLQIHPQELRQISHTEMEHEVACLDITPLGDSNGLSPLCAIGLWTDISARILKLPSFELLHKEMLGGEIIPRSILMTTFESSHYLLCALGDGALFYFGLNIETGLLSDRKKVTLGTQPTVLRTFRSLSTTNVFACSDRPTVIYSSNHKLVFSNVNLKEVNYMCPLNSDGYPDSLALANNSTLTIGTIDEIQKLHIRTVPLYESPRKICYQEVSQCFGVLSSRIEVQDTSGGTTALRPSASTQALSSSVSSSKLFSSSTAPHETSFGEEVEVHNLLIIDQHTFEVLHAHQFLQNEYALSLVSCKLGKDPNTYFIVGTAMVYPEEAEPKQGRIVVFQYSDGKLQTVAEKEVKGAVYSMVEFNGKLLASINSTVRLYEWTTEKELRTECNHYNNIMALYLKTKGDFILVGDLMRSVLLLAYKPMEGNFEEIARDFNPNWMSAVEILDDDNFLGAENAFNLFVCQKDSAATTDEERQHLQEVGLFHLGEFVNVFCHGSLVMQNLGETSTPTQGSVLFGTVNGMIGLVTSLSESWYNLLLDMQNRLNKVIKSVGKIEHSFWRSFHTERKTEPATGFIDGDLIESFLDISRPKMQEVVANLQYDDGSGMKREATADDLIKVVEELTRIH

Biological target: CRBN-DDB1 protein complex (Homo sapiens, UniProt Q96SW2)
Test: Fluorescence polarization (FP) assay, displacement of Cy5-labelled thalidomide
Details: read-out: CRBN binding Ki, 25 nM CRBN-DDB1, 5 nM Cy5-labelled thalidomide

Which Ki does the source give for `O=C1CCC(NC(=O)c2cc3cscc3s2)C(=O)N1` (stereo not shown) here?
Its Ki is 1 to 10 µM.
